This is an account of results in ChEMBL document CHEMBL2440068, “Synthesis and evaluation of N-alkyl-S-[3-(piperidin-1-yl)propyl]isothioureas: high affinity and human/rat species-selective histamine H(3) receptor antagonists” (Bioorg Med Chem Lett, 2013).

By UniProt entry, the sequences of proteins in these tests, tags left out. Where a name states a change or a piece, a line headed by the entry shows the natural chain unless it says otherwise.
UniProt Q9Y5N1: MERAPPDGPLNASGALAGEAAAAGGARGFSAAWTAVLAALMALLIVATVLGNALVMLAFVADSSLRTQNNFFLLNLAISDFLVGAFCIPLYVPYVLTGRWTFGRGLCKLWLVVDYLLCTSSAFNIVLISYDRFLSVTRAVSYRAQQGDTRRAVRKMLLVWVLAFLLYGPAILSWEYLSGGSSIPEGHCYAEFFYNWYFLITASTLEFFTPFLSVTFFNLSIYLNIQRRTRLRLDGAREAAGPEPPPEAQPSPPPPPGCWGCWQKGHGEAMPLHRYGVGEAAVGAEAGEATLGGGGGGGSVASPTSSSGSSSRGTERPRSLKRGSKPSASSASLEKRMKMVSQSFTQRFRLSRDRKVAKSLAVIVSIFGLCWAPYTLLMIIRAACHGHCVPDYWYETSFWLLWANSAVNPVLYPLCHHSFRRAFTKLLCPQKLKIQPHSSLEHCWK

Molecules are shown by their SMILES.

In this test the target is Histamine H3 receptor (Homo sapiens, UniProt Q9Y5N1). Nature of the test: Antagonist activity at human histamine H3 receptor expressed in CHO cells assessed as inhibition of forskolin/R-alpha-methylhistamine-induced cAMP accumulation after 1.5 hrs by TR-FRET immunoassay. The test is classed as functional, cell-based. (Cyclic AMP is a second messenger, typically raised through Gs and lowered through Gi signalling.)

As to `NC(=NCc1ccc(Cl)cc1)SCCCc1cnc[nH]1` [CLOBENPROPIT], the IC50 (as a rule, the midpoint of a concentration-inhibition curve) was 794 pM. Moreover, the Kb (read-out: pA2 (converted)) is 100 pM.
